{
  "source": "patent US9132083B2",
  "about": "“Delivery system comprising a silicon-containing material” (SISAF Ltd., priority 2009, dated 2015)",
  "origin": "cited, not measured here",
  "key": {"[1]": {"details": "for Amount of OSA production (Theoretical value): theoretical limit without stabiliser, corresponds to 10^-4 M OSA"}},
  "note": "Read-outs that look alike come from different tables or passages of the source.",
  "data": [
    {"substance": "orthosilicic acid", "values": [
      {"measurement": "OSA concentration over which polymerisation proceeds rapidly", "setting": "[1]; absence of a stabiliser", "result": "10^−4 M"},
      {"measurement": "concentration limit of a pure solution containing only silicic acid (above it PolySA species form)", "setting": "[1]; no stabiliser", "result": "around 10^−4 Mol·L^−1"},
      {"measurement": "Amount of OSA production (Theoretical value)", "setting": "[1]", "result": 0.48, "unit": "mg/50 ml"},
      {"measurement": "Amount of OSA production (Theoretical value)", "setting": "[1]; starting silicon 2.9 mg/L", "result": 9.6, "unit": "mg/L"},
      {"measurement": "pKa", "result": "around 9.8"},
      {"measurement": "pKa1", "setting": "25° C.", "result": 9.84},
      {"measurement": "pKa2", "setting": "25° C.", "result": 13.2}
    ]}
  ]
}
